Measurements as given in PubChem BioAssay AID624204 (Sanford-Burnham Center for Chemical Genomics, 2012).
This is a selection; strong and weak results do not stand in their true shares. Active and inactive are the calls of the source.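 The calls were made as follows: active = inhibition at least 30% at 10 µM, raw YFP signal under a set limit, fluorescence ratio 0.5 to 1.5; inactive = the rest.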

By UniProt entry, the sequences of proteins in these tests, tags left out. Where a name states a change or a piece, a line headed by the entry shows the natural chain unless it says otherwise.
UniProt Q9P0U3: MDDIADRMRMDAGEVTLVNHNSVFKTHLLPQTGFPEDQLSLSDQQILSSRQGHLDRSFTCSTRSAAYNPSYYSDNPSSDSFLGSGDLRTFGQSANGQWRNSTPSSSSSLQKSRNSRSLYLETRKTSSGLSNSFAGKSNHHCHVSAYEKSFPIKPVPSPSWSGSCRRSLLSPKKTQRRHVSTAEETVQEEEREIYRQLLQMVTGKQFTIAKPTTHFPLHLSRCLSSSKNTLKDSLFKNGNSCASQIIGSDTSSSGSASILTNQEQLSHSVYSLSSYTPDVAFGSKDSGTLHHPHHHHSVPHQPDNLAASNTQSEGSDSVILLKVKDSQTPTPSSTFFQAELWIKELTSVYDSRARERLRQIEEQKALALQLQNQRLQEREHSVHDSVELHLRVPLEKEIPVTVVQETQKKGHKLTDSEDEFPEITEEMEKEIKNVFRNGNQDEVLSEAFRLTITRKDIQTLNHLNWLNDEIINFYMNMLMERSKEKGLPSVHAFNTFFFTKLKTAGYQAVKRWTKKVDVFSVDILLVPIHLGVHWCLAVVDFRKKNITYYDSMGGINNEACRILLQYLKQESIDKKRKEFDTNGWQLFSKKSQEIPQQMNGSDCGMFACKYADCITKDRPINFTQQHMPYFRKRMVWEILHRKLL

Target: Sentrin-specific protease 1 (Homo sapiens) (UniProt Q9P0U3)
Test: human SENP1 catalytic domain inhibitors, primary screen, biochemical, FRET, uHTS (AID 624204);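 also: 0% = enzyme with DMSO and 100% = no enzyme wells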
Conditions: recombinant SENP1 catalytic domain, CyPet-SUMO1-YPet FRET cleavage; at 10 µM; stronger effect = higher value
Summary of the method: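 system = hSENP1 catalytic domain, recombinant | reagent = SFCypet-SUMO1-SFYpet substrate at 25 nM | doses = one dose per compound, 10 µM, 0.5% DMSO | incubation = enzyme reaction for 50 min at room temperature, dark | measured by = FRET, CFP and YFP emission | controls = no-enzyme low, enzyme-DMSO high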

Row | Structure (SMILES) | inhibition
1 | c1nnnn1CCn1cnnn1 | inactive: 2.69%
2 | CC(C)C(=O)NC(Sc1ccccc1)C(Cl)(Cl)Cl (stereo not given) | inactive: 0.689%
3 | O=P(Nc1nccs1)(c1ccccc1)c1ccccc1 | inactive: 3.44%
4 | C[C@H]1OP(=O)(Oc2ccccc2)[C@H](O)[C@H](O)[C@H]1N=[N+]=[N-] (stereo not given in full) | inactive: -1.33%
5 | O=P(Nc1nc2ccccc2s1)(c1ccccc1)c1ccccc1 | inactive: 1.2%
6 | Nc1ccc(CCCCOc2ccccc2)cc1 | inactive: -0.0909%
7 | COc1ccc(N)c([N+](=O)[O-])c1[N+](=O)[O-] | inactive: 3.94%
8 | O=P(Nc1ccccn1)(c1ccc(Br)cc1)c1ccc(Br)cc1 | inactive: 0.118%
9 | CN(C)C1(CNC(=O)c2ccc(Cl)c(S(N)(=O)=O)c2)CCCCC1 | inactive: 2.27%
10 | Nc1ccc([As](=O)(O)c2ccc([N+](=O)[O-])cc2)cc1 | inactive: 1.16%
11 | C(Cc1nn[nH]n1)Cc1nn[nH]n1 | inactive: 2.23%
12 | O=C(OC1CN2CCC1CC2)c1cccc(Cl)c1 (stereo not given) | inactive: 1.51%
13 | O=[N+]([O-])c1ccc(O)c(/C=N/Nc2ccc([N+](=O)[O-])cc2[N+](=O)[O-])c1 | inactive: 1.28%
14 | O=[N+]([O-])c1ncn(CCn2cnc([N+](=O)[O-])n2)n1 | inactive: 1.45%
15 | CC(=O)NC(SC(=S)N(C)C)C(Cl)(Cl)Cl (stereo not given) | inactive: 2.95%
16 | O=[As](O)(c1ccccc1)c1ccc(O)cc1 | inactive: 0.059%
17 | O=P1(N(CCCl)CCCl)OCCC2CCCCN21 (stereo not given) | inactive: 1.27%
18 | CCNC(=S)/N=C(\N)N[N+](=O)[O-] | inactive: 3.6%
19 | O=C(NC1CCS(=O)(=O)C1)NP(=S)(Oc1ccccc1)Oc1ccccc1 (stereo not given) | inactive: -2.45%
20 | Cc1ccc(NP(=O)(Oc2cccc(C)c2)Oc2cccc(C)c2)nc1 | inactive: -1.04%
21 | c1ccc(-c2nn[nH]n2)c(-c2nn[nH]n2)c1 | inactive: -1.97%
22 | CN(C)C(=O)Oc1noc2ccccc12 | inactive: -0.859%

Row | Structure (SMILES) | inhibition
23 | O=c1c2cc([N+](=O)[O-])ccc2[nH]c2c([N+](=O)[O-])cc([N+](=O)[O-])cc12 | active: 56.2%
24 | Cc1ccccc1OP(=O)(Nc1ccccn1)Oc1ccccc1C | inactive: 1.45%
25 | CC(NC(=O)COC(=O)C(O)(c1ccccc1)c1ccccc1)c1ccccc1 (stereo not given) | inactive: 2.46%
26 | Cc1ccc(OP(=O)(Nc2ccccn2)Oc2ccc(C)cc2)cc1 | inactive: -1.1%
27 | CC(=O)NC(SC(=S)N(CC(C)C)CC(C)C)C(Cl)(Cl)Cl (stereo not given) | inactive: 1.05%
28 | COC(=O)c1cc2c(s1)N=C(c1ccccc1)N(C)P2(=O)N1CCOCC1 (stereo not given) | inactive: 0.554%
29 | CCC(=O)N1C2C3N(C(=O)CC)C1C1N(C(=O)CC)C(C(N1C(=O)CC)N3C(=O)CC)N2C(=O)CC | inactive: -0.849%
30 | O=C(OC1CN2CCC1CC2)c1ccccc1 (stereo not given) | inactive: -3.55%
31 | CCc1cc(O)c([N+](=O)[O-])c(C)c1[N+](=O)[O-] | inactive: -0.719%
32 | CC(C)(C)C(=O)NC(Sc1ccccc1)C(Cl)(Cl)Cl (stereo not given) | inactive: 0.112%
33 | CCOc1ccc(C2=NCC(CBr)S2)cc1 (stereo not given) | inactive: 1.75%
34 | O=P1(Nc2nc3ccc(Cl)cc3s2)COc2ccccc2O1 (stereo not given) | inactive: 0.735%
35 | CC(=O)Nc1ccc(Oc2c([N+](=O)[O-])cc([N+](=O)[O-])cc2[N+](=O)[O-])cc1 | inactive: 2.53%
36 | CC(=O)Nc1ccc([As](=O)(O)O)c(O)c1 | inactive: 3.39%
37 | COC(=O)C1(C)COP(=O)(NCc2ccccc2)OC1 (stereo not given) | inactive: 2.44%
38 | N#C/C(=C\c1ccc(N(CCBr)CCBr)cc1)C(N)=O | inactive: -56.1%
39 | CC(=O)c1ccc(N2CC2c2ccncc2)cc1 (stereo not given) | inactive: -15.8%
40 | C[C@@H]1C=CCP(=O)(Oc2ccccc2)O1 (stereo not given in full) | inactive: 5.32%
41 | C[C@H]1OP(=O)(Oc2ccccc2)C[C@@H]2O[C@@H]21 (stereo not given in full) | inactive: 0.876%
42 | Cc1ccccc1CN(C)C(=O)COC(=O)C(O)(c1ccccc1)c1ccccc1 | inactive: -0.816%
43 | Cc1ccc(OP(=O)(Nc2nccs2)Oc2ccc(C)cc2)cc1 | inactive: 0.937%
44 | COc1ccccc1OP(=O)(Nc1ccc(C)cn1)Oc1ccccc1OC | inactive: 0.824%

Row | Structure (SMILES) | inhibition
45 | Clc1ccc(Cl)c(NC2=NCC(CBr)S2)c1 (stereo not given) | inactive: -1.65%
46 | CN1CCCC(OC(=O)C(c2ccccc2)c2ccccc2)C1 (stereo not given) | inactive: 0.29%
47 | NC(=O)c1cc([N+](=O)[O-])cc([N+](=O)[O-])c1N | inactive: 0.708%
48 | Cc1ccc(N/C(=N/P(=O)(N2CCOCC2)N2CCOCC2)N2CCOCC2)cc1 | inactive: 2.46%
49 | CN(C(=O)Cc1ccc(Cl)c(Cl)c1)[C@H]1CCCC[C@H]1N1CCCC1 | inactive: 0.363%
50 | O=[N+]([O-])C1C(O)C(O)C([N+](=O)[O-])C(O)C1O (stereo not given) | inactive: 0.721%
51 | CC(C)CC(=O)NC(Sc1ccc(Cl)cc1)C(Cl)(Cl)Cl (stereo not given) | inactive: 0.28%
52 | Nc1cc(N)c2nonc2c1[N+](=O)[O-] | inactive: -8.06%
53 | O=C(NC(Sc1ccncn1)C(Cl)(Cl)Cl)c1ccccc1 (stereo not given) | inactive: 1.88%
54 | Oc1ccccc1CNc1ccccn1 | inactive: 1.64%
55 | Cc1ccc(NP(=O)(Oc2ccccc2F)Oc2ccccc2F)nc1 | inactive: 0.797%
56 | CN(C(=O)Cc1ccc(Cl)c(Cl)c1)[C@H]1CCCC[C@@H]1N1CCCC1 | inactive: 2.17%
57 | CCOP(=O)(Nc1ccccc1)OCC | inactive: 0.779%
58 | Cc1cc(SC(NC(=O)c2ccc(F)cc2)C(Cl)(Cl)Cl)ncn1 (stereo not given) | inactive: 4.12%
59 | CCCC1OP(N)(=O)OCC1CC (stereo not given) | inactive: -1.25%
60 | O=C(O)c1ccccc1[As](=O)(O)O | inactive: 2.58%
61 | CC(=O)Nc1ccc([As](=O)(O)O)cc1 | inactive: 0.9%
62 | CN(C)P(=O)(N(C)C)n1c(Nc2ccccc2)nnc1-c1ccccc1 | inactive: 0.103%
63 | O=P(Nc1nc2ccc(Cl)cc2s1)(c1ccccc1)c1ccccc1 | inactive: 2.53%
64 | CCN(N=Nc1nonc1N)c1nonc1N | inactive: 2.2%
65 | Nc1cccc2ccc([As](=O)(O)O)cc12 | inactive: -5.06%
